Only a part of the results on these compounds is given; other tests are left out.
Columns and labels:
[1] = Stability in mouse hepatic microsomes assessed as half life at 1 uM by LC-MS/MS method; conditions: Liver
[2] = Stability in human hepatic microsomes assessed as half life at 1 uM by LC-MS/MS method; conditions: Liver

SMILES | t1/2 [1] [min] | t1/2 [2] [min]
O=c1[nH]c2cc(Cl)c(Cl)cc2n1C1CCN(Cc2ccc(Br)cc2)CC1 | 35 | 233
O=c1[nH]c2cc(Cl)c(Cl)cc2n1C1CCN(Cc2ccc(Br)cc2F)CC1 | 31 | 73
O=c1[nH]c2cc(Cl)ccc2n1C1CCN(Cc2ccc(Br)cc2F)CC1 | 17 | 84
O=c1[nH]c2c(Cl)cccc2n1C1CCN(Cc2ccccc2Cl)CC1 | 3 | 8
O=c1[nH]c2cc(Cl)ccc2n1C1CCN(Cc2ccccc2Cl)CC1 | 3 | 6
CC(c1ccc(OC(F)(F)F)cc1)N1CCC(n2c(=O)[nH]c3ccccc32)CC1 (stereo unspecified) | 14 | 120
O=c1[nH]c2ccc(Cl)cc2n1C1CCN(Cc2ccccc2Cl)CC1 | 4 | 17
CC(c1ccc2c(c1)OCO2)N1CCC(n2c(=O)[nH]c3ccccc32)CC1 (stereo unspecified) | 1 | 16

Source: ChEMBL document CHEMBL4196199, “Optimization of a Series of Mu Opioid Receptor (MOR) Agonists with High G Protein Signaling Bias” (2018)
